The nature of data set [1]: Stability analysis of P5 salt powders (HPLC area normalization). The following applies: powder.
Data set [2] can be described thus: Stability analysis of P5 salt solutions (HPLC area normalization). The following applies: solution.

Ends that are not written are not given here.

The results in this text go back to US11767344B2, “Pharmaceutically acceptable salts of polypeptides and methods of inhibiting the interaction between psd-95 and n-methyl-d-aspartic acid receptor (nmdar)” (BIOCELLS (BEIJING) BIOTECH CO., LTD., priority 2017, dated 2023).

In the case of YGRKKRRQRRRYEKLLDTEI [P5-Ac], the relative stability order entry is on record as “trifluoroacetate>hydrochloride>acetate” in data set [1] (high humidity), “trifluoroacetate>acetate>hydrochloride” in data set [1] (irradiation + ultraviolet), “acetate>hydrochloride” in data set [2] (high temperature) and “acetate>trifluoroacetate>hydrochloride” in data set [2] (irradiation).
